Measurements as given in patent US20160213739A1, “TREATMENTS FOR DISORDERS USING GUANYLATE CYCLASE C AGONISTS” (Ironwood Pharmaceuticals, Inc., priority 2011, published 2016).

biological target: Guanylate cyclase C (GC-C) on intact human T84 cells (human), P25092; test: cell-based or functional assay

First: CCSLCCNPACTGC (modifications not checked) [Peptide 2]
Second: CCELCCNPACTGCY (modifications not checked) [Peptide 3]
The cGMP response of T84 cells, EC50 at pH 5 (nM) of the first is lower: 10.4 nM for the first, 16 nM for the second.

CCSLCCNPACTGCY (modifications not checked) [Peptide 1] gave a cGMP response of T84 cells, EC50 at pH 5 (nM) of 9.8 nM.
